Experiments:
[1] = target: GFP-PBD (green fluorescent PCNA-binding domain of Dnmt1); experiment: GFP-multiTrap plate binding assay, fluorescence read-out; GFP fusion held on the GFP-multiTrap plate, blocked with 3% milk, incubated with HEK293T cellular extract holding the RFP fusion for 30 min at RT; molar ratio of bound RFP fusion over GFP fusion by plate reader
[2] = tested on: GFP-PBD (PCNA-binding domain of Dnmt1); experiment: In vitro protein-protein binding assay on GFP-multiTrap
Protocol: (§1) To address the question if such interaction analysis can be performed in a multi-well format we analyzed the interaction of single GFP-fusions with RFP-fusion proteins expressed in mammalian cells. More precisely, we determined quantitative binding ratios between nuclear located proteins involved in DNA-replication (PCNA), [18], DNA-methylation (Dnmt1) as well as in DNA-repair (Xrcc1). As described, we immobilized GFP-fusions on the GFP-multiTrap and incubated them with cell lysate containing RFP-fusion proteins. After binding, we removed unbound material, measured the concentrations of RFP and GFP and calculated the molar binding ratios. Firstly, we determined the binding ratios of the green fluorescent PCNA-binding domain of Dnmt1 (GFP-PBD) to RFP-PCNA and used Dnmt1ΔPBD as a negative control. By measuring the fluorescent signal intensities we detected that RFP-PCNA binds to GFP-PBD in a molar ratio of 1.42±0.31 but not to Dnmt1ΔPBD (Figure 3A).

Chains of the proteins cited; added tags and fusions are not shown.
UniProt P12004, whole entry: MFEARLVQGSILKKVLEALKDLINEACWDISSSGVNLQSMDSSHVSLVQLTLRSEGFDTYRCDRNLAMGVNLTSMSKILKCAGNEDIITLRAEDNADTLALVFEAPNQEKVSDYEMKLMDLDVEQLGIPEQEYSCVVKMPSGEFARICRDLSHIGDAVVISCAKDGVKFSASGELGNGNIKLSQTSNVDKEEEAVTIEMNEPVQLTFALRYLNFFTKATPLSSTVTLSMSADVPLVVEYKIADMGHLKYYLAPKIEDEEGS

GFP-Dnmt1ΔPBD = experiment: as above; settings: Figure 3A; fluorescent signal intensities
Protocol: as §1

Substance: RFP-PCNA (from UniProt P12004 1-261) (natural protein)
- molar binding ratio (RFP fusion/GFP fusion) [1]: 1.42

Substance: RFP-PCNA: RFP-fusion of PCNA expressed in HEK293T cells, 56 kDa
- Detection in bound fraction of GFP-PBD by immunoblotting ([2]; Figure 3B, SDS-PAGE, anti-RFP antibody 5F8): detected in the input and bound fractions
- Binding to GFP-PBD with varied input amount of RFP-fusion (Figure 3C) ([2]; two independent experiments, plate reader): binds
- Binding of RFP-fusion to GFP-Dnmt1ΔPBD (GFP-Dnmt1ΔPBD): not

From paper PMC3350483, “Versatile Toolbox for High Throughput Biochemical and Functional Studies with Fluorescent Fusion Proteins” (PLoS ONE, 2012)
